The source of these data is publication PMC3667390 (Cancer immunology, immunotherapy : CII, 2009).

The target in one test is purified HLA DRB1 *0405 (Homo sapiens, UniProt P01903+P01911, A100R/A169T/D86S/F76Y/I96L/K127E/L162R/M171V/N62H/P40V/Q125Y/R42H/S133A/S149N/S66Y/V115G/V209L/W38E). As to the kind of experiment: HLA-DR binding assay.
The target of a further test is purified HLA DRB1 *1302 (Homo sapiens, UniProt P01903+P01911, A100E/A169T/K41T/L162R/M171V/P40S/Q125H/Q178H/Q39Y/Q99D/R42S/S66N/T262R/V115G/W38E/Y61H). As to the kind of experiment: HLA-DR binding assay.

Usually IC50 stands for the concentration needed to halve the response being measured. A lower IC50 goes with inhibition by little substance.

As to `CC[C@H](C)[C@H](NC(=O)[C@@H](NC(=O)[C@H](CCCCN)NC(=O)[C@@H](NC(=O)[C@@H](NC(=O)[C@@H](NC(=O)[C@@H](N)CCCNC(=N)N)[C@@H](C)O)[C@@H](C)O)C(C)C)[C@@H](C)O)C(=O)N[C@H](C(=O)N[C@H](C(=O)N[C@@H](CO)C(=O)N[C@@H](C)C(=O)N[C@@H](CCC(=O)O)C(=O)N[C@@H](CC(C)C)C(=O)N1CCC[C@H]1C(=O)N[C@@H](CCCCN)C(=O)O)C(C)C)[C@@H](C)O` [CEA.488], the results for the IC50 at purified HLA DRB1 *0405 and at purified HLA DRB1 *1302 were 0.011 µM and 0.096 µM, respectively.
